Assay results published in patent US11925672B2, “Peptide having antioxidant activity and composition containing same” (SEMPIO FOODS COMPANY, priority 2018, dated 2024).

Columns and labels:
[1] = DPPH-scavenging ability assay; format: biochemical; conditions: peptides; vs GSH
Experimental: 2. DPPH (2,2-Diphenyl-1-Picryl-Hydrazyl-Hydrate) Assay Method
The antioxidant activity due to the DPPH-scavenging ability of yeast hydrolyzates was measured using the methods of Choi Chang-seop et al. (2003) and Shekhar et al. (2014). 20 μl of a sample (1 to 5000 μg/ml) dissolved in distilled water was added to 180 μl of an ethanol solution containing DPPH (0.111 mM). The resulting mixture was allowed to react at 25° C. for 30 minutes, and absorbance was measured at 517 nm. Ascorbic acid was used to create the standard curve, and DPPH-scavenging ability (%) was calculated and expressed by the equation of [(absorbance upon no addition of sample−absorbance of sample)/absorbance upon no addition of sample]×100.
(§1) The DPPH-scavenging ability and reducing power of the fractions of respective yeast hydrolyzates (Preparation Examples 1 to 4) were measured using the same method of measuring DPPH-scavenging ability and reducing power as in Experimental Example 1.

[2] = Reducing power assay (method of Oyaizu); conditions: peptides; vs GSH
Experimental: 3. Reducing Power Assay Method
The reducing power of yeast hydrolysates was measured using the method of Oyaizu (1986). Specifically, a sample (1-5000 μg/ml, 60 μl) dissolved in distilled water was mixed with phosphate buffer (150 μl, 0.2M, pH 6.6) and potassium ferricyanide (K 3 Fe(CN) 6, 150 μl, 1%), followed by reacting at 50° C. for 20 minutes. Further, 150 μl of trichloroacetic acid (10%) was added thereto, followed by centrifugation at 2,000 g for 10 minutes. 150 μl of the supernatant containing the sample was added to 150 μl of DW and FeCl3 (30 μl, 0.1%). The resulting mixture was allowed to react at 25° C. for 10 minutes, and absorbance was measured at 700 nm.
as §1

Nrf2 mRNA = Nrf2 mRNA expression level by real-time PCR in Tert-BHP-treated HEK293 cells; format: cell-based; conditions: Tert-BHP 300 μM, 18 hours; for effect on expression of Nrf2 mRNA / Nrf2 mRNA expression compared to positive control GSH: peptide 500 μM; for effect on expression of Nrf2 mRNA: FIGS. 5A to 5C; for Nrf2 mRNA expression compared to positive control GSH: vs GSH
Experimental: In the present invention, the antioxidant activity was compared between the 100 types of peptides, and the change in Nrf2 mRNA expression was measured through PCR in order to select the final peptide.
(§2) An HEK293 cell (kidney cell) line was seeded at a density of 6.6×10^5/well in DMEM (Dulbecco's Modified Eagle's Medium) medium on a 6-well plate and cultured at 37° C. under 5% CO2 for 24 hours. The next day, the medium was exchanged with serum and amino-acid-free media, and then the cells were further cultured for 20 hours or longer. The cells were treated with Tert-BHP (300 μM) and 500 μM 100 types of peptides, and then cultured for 18 hours.
RNA was extracted from the cells treated with 100 types of peptides in (1) using TRIzol (Thermo Fisher Scientific). A GoScript™ Reverse Transcription System (Promega, Wisconsin, USA) was used to synthesize cDNA from the RNA. The cDNA was synthesized by performing annealing using 1 μg of RNA, 0.5 μg of an oligo dt primer, 0.5 μg of a random primer and RT-PCR pre-mixture at 25° C. for 5 minutes, extension at 42° C. for 60 minutes, and inactivation at 70° C. for 15 minutes.
(§3) PCR was performed using Maxime™ PCR PreMix (i-StarTaq) (Intron Biotechnology, Korea). Real-time PCR was performed using SsoAdvanced™ Universal SYBR® Green Supermix (Bio-Rad, USA). 100 ng of cDNA, 2 μM (pmol/μl) primers, 10 μl of 2X SsoAdvanced™ Universal SYBR® Green Supermix and DW were added to the PCR plate well. Then, the temperature was cyclically adjusted to 95° C. for 3 minutes, 95° C. for 10 seconds and 58° C. for 40 seconds for a total of 40 cycles. A PCR reaction was performed using a CFX96 Touch™ Real-Time PCR Detection System (Bio-Rad, California, USA), and fluorescence intensity was measured at the end of each cycle.

SOD2 mRNA = SOD2 mRNA expression level by real-time PCR in Tert-BHP-treated HEK293 cells; format: cell-based; conditions: Tert-BHP 300 μM, peptide 500 μM, 18 hours; for effect on SOD2 mRNA expression: FIG. 6; for SOD2 mRNA expression compared to positive control GSH: vs GSH
Experimental: The expression of SOD2 mRNA as another antioxidant factor was determined. The cell line culture, RNA extraction, cDNA synthesis and PCR experiments were performed in the same manner as in Experimental Example 5 above. A detailed description thereof is given below.
as §2, with “and” for “under”
RNA was extracted from the cells treated with 100 types of peptides in (1) using TRIzol (Thermo Fisher Scientific). A GoScript™ Reverse Transcription System (Promega, Wisconsin, USA) was used to synthesize cDNA from the RNA. The cDNA was synthesized by performing annealing with 1 μg RNA, 0.5 μg of an oligo dt primer, 0.5 μg of a random primer, and RT-PCR pre-mixture at 25° C. for 5 minutes, extension at 42° C. for 60 minutes, and inactivation at 70° C. for 15 minutes.
as §3, with “using the” for “using a”

γ-GLU-CYS(S-Me)(O2) (EC; gamma-glutamyl linkage; S-methyl cysteine dioxide; In the peptide, Cys is Cys(Me)(O2), which is characterized in that the hydrogen of the thiol group is substituted with a methyl group and has a sulfoxide structure. Cys(Me)(O2) can be referred to as S-(methyl)-cysteine sulfoxide. The peptide is a formed by; (2)..(2) cysteine in which hydrogen of the thiol group is substituted with a methyl group and which has a sulfoxide structure) [γ-GLU-CYS(S-Me) (O2)]
DPPH-scavenging ability of peptide compared to GSH [1]: comparable or superior to GSH | reducing power of peptide compared to GSH [2]: comparable or superior to GSH | effect on expression of Nrf2 mRNA (Nrf2 mRNA): improve the expression of Nrf2 mRNA | Nrf2 mRNA expression compared to positive control GSH (Nrf2 mRNA): statistically significant activity; also recorded: comparable or superior to GSH | Nrf2 mRNA expression compared to positive control GSH (Nrf2 mRNA; listed as γ-GLU-CYS(S-Me) (02)): comparable or superior | increase of Nrf2 mRNA expression level compared to GSH (Nrf2 mRNA; same concentration as GSH (500 μM)): more than four | effect on SOD2 mRNA expression (SOD2 mRNA): increased SOD2 mRNA expression | SOD2 mRNA expression compared to positive control GSH (SOD2 mRNA): comparable or superior; also recorded: statistically significant activity

γ-GLU-ILE (EI; gamma-glutamyl linkage; The peptide is a formed by condensation of the gamma-carboxy group of L-glutamic acid with the amino group of L-isoleucine.)
DPPH-scavenging ability of peptide compared to GSH [1]: comparable or superior to GSH | reducing power of peptide compared to GSH [2]: comparable or superior to GSH | effect on expression of Nrf2 mRNA (Nrf2 mRNA): improve the expression of Nrf2 mRNA | Nrf2 mRNA expression compared to positive control GSH (Nrf2 mRNA): statistically significant activity; also recorded: comparable or superior to GSH | effect on SOD2 mRNA expression (SOD2 mRNA): increased SOD2 mRNA expression | SOD2 mRNA expression compared to positive control GSH (SOD2 mRNA): comparable or superior; also recorded: statistically significant activity

γ-GLU-VAL-ol (EV; gamma-glutamyl linkage; C-terminal valinol; In the peptide, Val is Valinol(2-Amino-3-methyl-1-butanol)(Val-ol). The peptide is a formed by condensation of the gamma-carboxy group of L-glutamic acid with the amino group of Val-ol; (2)..(2) valinol (2-amino-3-methyl-1-butanol))
effect on expression of Nrf2 mRNA (Nrf2 mRNA): improve the expression of Nrf2 mRNA | Nrf2 mRNA expression compared to positive control GSH (Nrf2 mRNA): comparable or superior | effect on SOD2 mRNA expression (SOD2 mRNA): increased SOD2 mRNA expression | SOD2 mRNA expression compared to positive control GSH (SOD2 mRNA): comparable or superior

γ-GLU-CYS (EC; gamma-glutamyl linkage; The peptide is a formed by condensation of the gamma-carboxy group of L-glutamic acid with the amino group of L-cysteine.)
effect on expression of Nrf2 mRNA (Nrf2 mRNA): improve the expression of Nrf2 mRNA | Nrf2 mRNA expression compared to positive control GSH (Nrf2 mRNA): comparable or superior; also recorded: statistically significant activity | effect on SOD2 mRNA expression (SOD2 mRNA): increased SOD2 mRNA expression | SOD2 mRNA expression compared to positive control GSH (SOD2 mRNA): comparable or superior; also recorded: statistically significant activity

γ-GLU-GLN (EQ; gamma-glutamyl linkage; The peptide is a formed by condensation of the gamma-carboxy group of L-glutamic acid with the amino group of L-glutamine.)
effect on expression of Nrf2 mRNA (Nrf2 mRNA): improve the expression of Nrf2 mRNA | Nrf2 mRNA expression compared to positive control GSH (Nrf2 mRNA): comparable or superior; also recorded: statistically significant activity | effect on SOD2 mRNA expression (SOD2 mRNA): increased SOD2 mRNA expression | SOD2 mRNA expression compared to positive control GSH (SOD2 mRNA): comparable or superior; also recorded: statistically significant activity

γ-GLU-VAL-NH2 (EV; gamma-glutamyl linkage; C-terminal amide; In the peptide, Val is L-valine amide(Val-NH2). The peptide is a formed by condensation of the gamma-carboxy group of L-glutamic acid with the amino group of L-valine amide.; (2)..(2) valine amide)
effect on expression of Nrf2 mRNA (Nrf2 mRNA): improve the expression of Nrf2 mRNA | Nrf2 mRNA expression compared to positive control GSH (Nrf2 mRNA): comparable or superior | effect on SOD2 mRNA expression (SOD2 mRNA): increased SOD2 mRNA expression | SOD2 mRNA expression compared to positive control GSH (SOD2 mRNA): comparable or superior

γ-GLU-TRP (EW; gamma-glutamyl linkage; The peptide is a formed by condensation of the gamma-carboxy group of L-glutamic acid with the amino group of L-tryptophan.)
effect on expression of Nrf2 mRNA (Nrf2 mRNA): improve the expression of Nrf2 mRNA | Nrf2 mRNA expression compared to positive control GSH (Nrf2 mRNA): comparable or superior; also recorded: statistically significant activity | effect on SOD2 mRNA expression (SOD2 mRNA): increased SOD2 mRNA expression | SOD2 mRNA expression compared to positive control GSH (SOD2 mRNA): comparable or superior; also recorded: statistically significant activity

γ-GLU-GLY (EG; gamma-glutamyl linkage; The peptide is a formed by condensation of the gamma-carboxy group of L-glutamic acid with the amino group of L-glycine.)
effect on expression of Nrf2 mRNA (Nrf2 mRNA): improve the expression of Nrf2 mRNA | Nrf2 mRNA expression compared to positive control GSH (Nrf2 mRNA): comparable or superior; also recorded: statistically significant activity | effect on SOD2 mRNA expression (SOD2 mRNA): increased SOD2 mRNA expression | SOD2 mRNA expression compared to positive control GSH (SOD2 mRNA): comparable or superior; also recorded: statistically significant activity

“Also recorded” adds a separate entry of the source.
